Results published in article PMC3807590.

What was measured:
TM5a and TM1b9a = experiment: FRET or BRET; AEDANS-TM at 0.6 µM titrated with DABMI-actin; quenching of AEDANS fluorescence (excitation 340 nm, emission 495 nm); 2 mM HEPES, pH 7.6, 40 mM NaCl, 5 mM MgCl2 at 22°C
skTM and TM2 = experiment: as above

- stoichiometry N (actins per TM) (TM5a and TM1b9a): 4 and 5
- stoichiometry N (actins per TM) (skTM and TM2): 6 and 7
Substance: Chicken skeletal muscle α-actin labeled with DABMI at Cys374 (from UniProt P68139 1-377) (natural protein)

Several values for one entry are separate records, joined by “and”; a condition that tells them apart may be missing. Equal entries are not always repeated.
